Patent US20190241639A1 (ZHEJIANG DOER BIOLOGICS, published 2019)

Target: GLP-2 receptor
Assay: cell-based or functional assay

B1: GLP-2 mutant fusion protein SEQ ID NO:28 (Fc fusion)
chain: HGDGSFSDEMNTILDNLAARDFINWLINGGPSSGAPPPSGGGGSGPAGPNESKYGPPCPPCPAPEFLGGPSVFLFPPKPKDTLMISRTPEVTCVVVDVSQEDPEVQFNWYVDGVEVHNAKTKPREEQFASTYRVVSVLTVLHQDWLNGKEYKCKVSNKGLPSSIEKTISKAKGQPREPQVYTLPPSQEEMTKNQVSLTCLVKGFYPSDIAVEWESNGQPENNYKTTPPVLDSDGSFFLYSRLTVDKSRWQEGNVFSCSVMHEALHNHYTQKSLSLSLG
EC50 (nM), luciferase reporter gene assay in GLP-2R/Luc-CHO cells: 23.2 nM

B2: GLP-2 mutant fusion protein SEQ ID NO:27 (Fc fusion)
chain: HGDGSFSDEMNTILDNLAARDFINWLIQTKNGGPSSGAPPPSGGGGSGGGGSESKYGPPCPPCPAPEFLGGPSVFLFPPKPKDTLMISRTPEVTCVVVDVSQEDPEVQFNWYVDGVEVHNAKTKPREEQFASTYRVVSVLTVLHQDWLNGKEYKCKVSNKGLPSSIEKTISKAKGQPREPQVYTLPPSQEEMTKNQVSLTCLVKGFYPSDIAVEWESNGQPENNYKTTPPVLDSDGSFFLYSRLTVDKSRWQEGNVFSCSVMHEALHNHYTQKSLSLSLG
EC50 (nM), luciferase reporter gene assay in GLP-2R/Luc-CHO cells: 92.1 nM
